Key:
human FXR [1] = biological target: T1, human FXR (Homo sapiens, UniProt Q96RI1); assay: FXR-bla reporter gene assay, agonist mode (qHTS); settings: Table S1, primary screening
human FXR [2] = biological target: T1, human FXR; assay: FXR-bla reporter gene assay, antagonist mode (CDCA-induced transactivation); settings: Table S1, primary screening; 50 µM CDCA

Amino acid sequences for entries named in this document (tags omitted). Chains listed by the source or under a name are the forms on record and can include a tag or linker.
UniProt Q96RI1, with tags, fused parts or gaps limits assumed: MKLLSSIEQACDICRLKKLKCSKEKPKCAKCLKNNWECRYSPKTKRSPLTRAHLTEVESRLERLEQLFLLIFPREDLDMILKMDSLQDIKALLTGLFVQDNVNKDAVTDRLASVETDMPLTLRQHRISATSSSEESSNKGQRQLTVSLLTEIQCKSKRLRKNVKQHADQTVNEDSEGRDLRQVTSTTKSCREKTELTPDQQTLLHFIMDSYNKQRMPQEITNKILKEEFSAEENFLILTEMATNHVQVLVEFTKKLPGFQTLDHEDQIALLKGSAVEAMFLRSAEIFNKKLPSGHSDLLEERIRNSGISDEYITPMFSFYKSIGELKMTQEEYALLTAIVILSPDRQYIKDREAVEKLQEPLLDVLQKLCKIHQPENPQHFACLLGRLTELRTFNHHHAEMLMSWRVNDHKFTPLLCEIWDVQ

Structure (SMILES)	FXR agonist mode EC50 (human FXR [1])	FXR antagonist mode Efficacy (human FXR [2]) [%]
C/C=C1/C(=O)C[C@H]2[C@@H]3CCC4=CC(=O)CC[C@]4(C)[C@H]3CC[C@]12C [(E)-Guggulsterone]	Inactive	58 ± 33
C/C=C1\C(=O)C[C@H]2[C@@H]3CCC4=CC(=O)CC[C@]4(C)[C@H]3CC[C@]12C [(Z)-Guggulsterone]	Inactive	124 ± 4

— PMC4894417, “Quantitative High-Throughput Profiling of Environmental Chemicals and Drugs that Modulate Farnesoid X Receptor” (Scientific Reports, 2014)
